Test results from patent US20230190937A1, “IRON COMPLEXES OF ESTERIFIED DERIVATIVES OF NATURAL PRODUCTS, AND METHODS OF USE” (CORNELL UNIVERSITY, priority 2021, published 2023).

Assay: Stability of curcumin after modification to ester derivatives
Details: after esterification of curcumin, compared with pure curcumin (97% purity)

Substance | stability of the compound
curcumin dibutanoate | significantly increased
curcumin dioctanoate | significantly increased
